Measurements published in ChEMBL document CHEMBL2375236, “Strategic use of conformational bias and structure based design to identify potent JAK3 inhibitors with improved selectivity against the JAK family and the kinome” (Bioorg Med Chem Lett, 2013).

Key:
JAK3/JAK1 = JAK3/JAK1 (Homo sapiens, UniProt P23458+P52333); assay type: cell-based, T-cell
[1] = biological target: T1, Tyrosine-protein kinase JAK3 (Homo sapiens, UniProt P52333)
T1 sequence (P52333 whole entry): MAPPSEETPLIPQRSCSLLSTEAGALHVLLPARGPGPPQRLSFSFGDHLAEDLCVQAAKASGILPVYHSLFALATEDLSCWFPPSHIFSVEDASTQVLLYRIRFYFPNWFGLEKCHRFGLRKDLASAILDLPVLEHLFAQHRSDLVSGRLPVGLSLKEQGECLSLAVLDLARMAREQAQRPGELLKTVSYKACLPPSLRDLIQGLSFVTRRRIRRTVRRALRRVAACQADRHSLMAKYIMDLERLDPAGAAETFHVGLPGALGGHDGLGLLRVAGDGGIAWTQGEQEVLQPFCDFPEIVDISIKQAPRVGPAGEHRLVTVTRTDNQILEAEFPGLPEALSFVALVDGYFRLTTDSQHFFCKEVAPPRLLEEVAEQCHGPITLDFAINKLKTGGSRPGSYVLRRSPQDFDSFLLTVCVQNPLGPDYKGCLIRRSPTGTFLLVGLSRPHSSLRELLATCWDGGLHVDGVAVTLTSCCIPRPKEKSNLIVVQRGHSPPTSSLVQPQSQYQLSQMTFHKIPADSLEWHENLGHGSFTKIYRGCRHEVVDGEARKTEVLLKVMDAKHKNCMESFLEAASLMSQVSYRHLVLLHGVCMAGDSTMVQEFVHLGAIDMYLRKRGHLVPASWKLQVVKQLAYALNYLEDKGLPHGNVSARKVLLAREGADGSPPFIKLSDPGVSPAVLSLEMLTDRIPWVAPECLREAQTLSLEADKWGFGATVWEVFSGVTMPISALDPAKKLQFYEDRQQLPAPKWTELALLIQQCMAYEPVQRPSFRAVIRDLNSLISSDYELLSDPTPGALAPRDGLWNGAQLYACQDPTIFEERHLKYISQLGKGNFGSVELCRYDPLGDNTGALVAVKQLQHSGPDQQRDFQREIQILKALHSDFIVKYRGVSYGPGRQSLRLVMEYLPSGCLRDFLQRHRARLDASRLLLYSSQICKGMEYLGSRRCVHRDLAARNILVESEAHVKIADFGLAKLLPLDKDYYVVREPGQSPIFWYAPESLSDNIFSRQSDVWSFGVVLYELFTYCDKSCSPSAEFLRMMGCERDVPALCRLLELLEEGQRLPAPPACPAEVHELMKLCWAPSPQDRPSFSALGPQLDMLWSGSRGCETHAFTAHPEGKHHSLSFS

[2] = biological target: T1, Tyrosine-protein kinase JAK3; remark: listed apart in the source

Structure (SMILES)	IC50 (JAK3/JAK1) [nM]	IC50 [1] [nM]	Kd [2] [nM]
C[C@@H](NC(=O)c1c[nH]c2ncc(-c3nn(C)c4cc(Cl)ccc34)nc12)C(=O)N1CC(C#N)C1	240	1.1	1.4
C[C@@H](NC(=O)c1c[nH]c2ncc(-c3nn(C)c4cc(C#N)ccc34)nc12)C(=O)N1CC(C#N)C1		2.3	
C[C@@H](NC(=O)c1c[nH]c2ncc(-c3ncn4cc(F)cc(F)c34)nc12)C(=O)N1CC(C#N)C1		1	

Now those with a lower IC50 [1], led by results:

IC50 (JAK3/JAK1) [nM]	IC50 [1] [nM]	Kd [2] [nM]	Structure (SMILES)
100	0.4		COc1cc(-c2cnc3[nH]cc(C(=O)N[C@H](C)C(=O)N4CC(C#N)C4)c3n2)cc(OC)c1OC
150	0.6		C[C@@H](NC(=O)c1c[nH]c2ncc(-c3nn(C)c4cc(F)ccc34)nc12)C(=O)N1CC(C#N)C1
	0.3		Cn1nc(-c2cnc3[nH]cc(C(=O)N[C@@H](C(=O)N4CC(C#N)C4)C4CC4)c3n2)c2ccc(Cl)cc21
	0.8		C[C@@H](NC(=O)c1c[nH]c2ncc(-c3cn(C)c4cc(Cl)ccc34)nc12)C(=O)N1CC(C#N)C1
